{
  "source": "patent US20240285810A1",
  "about": "“DEVELOPMENT OF A NOVEL PET PROBE FOR TARGETED BACTERIAL IMAGING” (published 2024)",
  "tested_on": "E. coli K12",
  "test": "myositis infection model imaged with the control probe",
  "data": [
    {"substance": "^18F-Fluoro-2-Deoxy-D-glucose", "values": [
      {"measurement": "signal from the muscle injected with non-pathogenic commensal E. coli K12", "value": "lack of a substantial signal"}
    ]}
  ]
}
